Measurements published in US8129371B2, “Thienopyrimidine and pyrazolopyrimidine compounds and their use as mTOR kinase and PI3 kinase inhibitors” (Wyeth LLC, priority 2007, dated 2012).

The chains behind the UniProt entries cited, without tags or fusion partners.
UniProt P42336, whole entry: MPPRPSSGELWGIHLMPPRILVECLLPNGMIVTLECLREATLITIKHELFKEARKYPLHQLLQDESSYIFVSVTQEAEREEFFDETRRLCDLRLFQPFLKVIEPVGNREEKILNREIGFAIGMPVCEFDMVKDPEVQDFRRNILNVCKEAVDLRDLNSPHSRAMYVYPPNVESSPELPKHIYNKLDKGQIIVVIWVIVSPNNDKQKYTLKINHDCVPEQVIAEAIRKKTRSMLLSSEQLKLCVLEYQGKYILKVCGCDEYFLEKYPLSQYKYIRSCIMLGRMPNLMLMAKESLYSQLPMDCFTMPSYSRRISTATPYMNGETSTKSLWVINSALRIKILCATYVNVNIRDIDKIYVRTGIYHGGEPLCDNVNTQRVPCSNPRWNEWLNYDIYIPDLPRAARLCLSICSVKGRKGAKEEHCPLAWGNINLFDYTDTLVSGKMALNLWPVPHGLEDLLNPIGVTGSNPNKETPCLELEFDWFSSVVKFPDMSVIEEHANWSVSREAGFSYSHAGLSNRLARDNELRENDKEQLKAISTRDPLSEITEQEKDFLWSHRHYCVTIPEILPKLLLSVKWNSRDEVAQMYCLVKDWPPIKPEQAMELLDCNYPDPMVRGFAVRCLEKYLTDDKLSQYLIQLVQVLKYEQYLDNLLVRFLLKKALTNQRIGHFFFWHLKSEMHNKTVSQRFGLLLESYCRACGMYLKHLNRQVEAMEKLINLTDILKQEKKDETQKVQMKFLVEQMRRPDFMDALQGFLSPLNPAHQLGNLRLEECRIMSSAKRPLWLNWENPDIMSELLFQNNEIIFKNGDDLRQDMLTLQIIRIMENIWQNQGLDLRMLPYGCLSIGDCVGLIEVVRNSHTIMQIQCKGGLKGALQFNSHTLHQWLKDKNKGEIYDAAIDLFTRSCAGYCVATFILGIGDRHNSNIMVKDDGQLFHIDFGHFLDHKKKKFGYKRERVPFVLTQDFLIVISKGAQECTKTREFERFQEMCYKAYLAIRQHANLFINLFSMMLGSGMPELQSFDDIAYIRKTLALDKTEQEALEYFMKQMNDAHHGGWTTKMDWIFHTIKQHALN

Target: T1, PI3K (Homo sapiens, UniProt P42336)
T1 construct: PI3 Kinase α IC50; other: PI3 Kinase α; other: PI3 Kinase α isoform, fluorescence polarization
Test: Fluorescence polarization assay for PI3K
Type: biochemical
Details: PI3 Kinase α
Experimental: This assay is used to determine the IC50 of compounds of the present invention as it identifies inhibitors of PI3 kinase by measuring inhibition.
The assay is run by placing 5 μL of diluted enzyme per well, then 5 μL of diluted compound (or 9.5 μL enzyme then 0.5 μL compound in DMSO) is added and mixed. Then, 10 μL substrate is added to start the reaction. The samples are incubated 30-60 minutes, then the reaction is stopped by adding 20 μL stop/detector mix. PI3K is diluted with reaction buffer (e.g., 5 μL or 7.5 μL PI3K into 620 μL reaction buffer), and 5 μL of diluted enzyme is used per well. 5 μL reaction buffer or drug diluted in buffer (e.g., 4 μL/100 so final DMSO is 1% in reaction) is added to each. Pipetting up and down mixes the samples. Alternatively, the enzyme can be diluted to 1215 μL. In this case 9.8 μL is added per well and 0.2 μL compound is added in DMSO. […]
Stop/detector mix is prepared by mixing 4 μL Red detector and 1.6 μL or 2.0 μL GST-GRP with 1 mL Stop buffer, which results in 10 nM probe and 70 nM GST-GRP). […] The plates are read after 30-90 minutes keeping the red probe solutions dark. […] Plates are read on machines with filters for Tamra. The units are mP with no enzyme controls reading app 190-220 mP units. Fully active enzyme reduces fluorescence polarization down to 70-100 mP after 30 minutes.

`COC(=O)N1CCC(n2ncc3c(N4CC5CCC(C4)O5)nc(-c4ccc(NC(=O)NC5CC5)cc4)nc32)CC1` [Example 12, methyl 4-[6-{4-[(cyclopropylcarbamoyl)amino]phenyl}-4-(8-oxa-3-azabicyclo[3.2.1]oct-3-yl)-1H-pyrazolo[3,4-d]pyrimidin-1-yl]piperidine-1-carboxylate] was tested, and the IC50 was 6.66 µM.
